Values of other authors in US20260382649A1, “TREATMENT OF ASCT2-DEPENDENT CANCERS” (published 2026).

System: human tumor cells

SMILES	effect on the growth of human tumor cells
C[C@H]1O[C@@H](O[C@H]2[C@@H](O)C[C@H](O[C@H]3[C@@H](O)C[C@H](O[C@H]4CC[C@@]5(C)[C@H](CC[C@@H]6[C@@H]5CC[C@]5(C)[C@@H](C7=CC(=O)OC7)CC[C@]65O)C4)O[C@@H]3C)O[C@@H]2C)C[C@H](O)[C@@H]1O	inhibitory effect
CO[C@H]1C[C@H](O[C@H]2CC[C@@]3(C)[C@H](CC[C@@H]4[C@@H]3CC[C@]3(C)[C@@H](C5=CC(=O)OC5)[C@@H](OC(C)=O)C[C@]43O)C2)O[C@@H](C)[C@@H]1O	inhibitory effect
